# Earlier results as cited in patent publication US20260382613A1, “METHODS OF TREATING ACUTE LEUKEMIA” (published 2026).
# Key:
# [1] = tested on: MEN1; conditions: revumenib, at least 2 cycles; cited from earlier work
# [2] = revumenib; cited from earlier work
compound,measurement,setting,value
CCN(C(=O)c1cc(F)ccc1Oc1cncnc1N1CC2(CCN(C[C@H]3CC[C@H](NS(=O)(=O)CC)CC3)CC2)C1)C(C)C,patients with one or more MEN1 mutations,[1],39%
same,QT prolongation as treatment-related adverse event,[2],53%
